Sequences of proteins named here, by UniProt entry; tags and fusion partners are left off. A change or cut given only in a name is not applied to a line headed by its entry.
UniProt Q9GZV3: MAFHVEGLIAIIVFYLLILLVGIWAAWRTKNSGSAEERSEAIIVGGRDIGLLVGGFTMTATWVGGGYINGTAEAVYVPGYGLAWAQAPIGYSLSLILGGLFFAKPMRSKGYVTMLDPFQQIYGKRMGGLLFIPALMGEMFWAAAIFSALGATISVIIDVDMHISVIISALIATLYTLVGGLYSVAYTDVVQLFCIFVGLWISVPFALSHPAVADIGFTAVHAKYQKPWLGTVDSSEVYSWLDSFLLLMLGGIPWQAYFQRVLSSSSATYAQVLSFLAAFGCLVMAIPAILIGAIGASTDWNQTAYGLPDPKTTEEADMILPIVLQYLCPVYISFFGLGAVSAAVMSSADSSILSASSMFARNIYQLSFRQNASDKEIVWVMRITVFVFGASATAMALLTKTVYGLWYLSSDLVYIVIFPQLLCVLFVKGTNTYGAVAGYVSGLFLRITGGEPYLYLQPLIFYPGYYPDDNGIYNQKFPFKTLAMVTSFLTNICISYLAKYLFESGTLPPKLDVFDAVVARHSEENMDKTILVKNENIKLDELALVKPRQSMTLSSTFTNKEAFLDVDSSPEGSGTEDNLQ

In PubChem BioAssay AID588401 (Johns Hopkins Ion Channel Center, 2011):

Biological target: High affinity choline transporter 1 (Homo sapiens) (UniProt Q9GZV3)
Experiment: CHT inhibitors, dose response, cell-based, 10-point CRC, membrane potential dye (AID 588401)
Conditions: HEK293-CHT, choline-induced depolarization, cells express LV-AA mutant CHT

SMILES: CCc1nc2c(n1)c1c(non1O)c1c2no[n+]1[O-]
- IC50: 1780 nM
